Target: T1, human CCR1 (Homo sapiens, UniProt P32246)
T1 construct: expressed in transfected cells; host or cells: HEK-293
T1 sequence (P32246 1-355): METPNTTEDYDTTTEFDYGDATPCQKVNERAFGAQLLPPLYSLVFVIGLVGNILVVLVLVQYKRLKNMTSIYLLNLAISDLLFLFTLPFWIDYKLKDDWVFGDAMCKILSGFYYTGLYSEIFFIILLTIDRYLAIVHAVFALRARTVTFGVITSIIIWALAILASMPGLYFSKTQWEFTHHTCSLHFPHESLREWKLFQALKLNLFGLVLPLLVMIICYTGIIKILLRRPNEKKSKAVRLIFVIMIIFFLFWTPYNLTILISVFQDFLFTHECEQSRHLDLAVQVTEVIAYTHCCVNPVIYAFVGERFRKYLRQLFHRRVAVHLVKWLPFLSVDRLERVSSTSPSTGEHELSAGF
Experiment: RANTES-induced CCR1/HEK-293 transfectant migration
Format: cell-based
Settings: ≦ 5% standard error; NA = not active; read-out: IC50 (μM) RANTES-Induced CCRI/HEK Migration
Description: Human embryonic kidney cells 293 (HEK-293) transfected to express human CCR1, CCR3, or CCR5 receptors were cultured in Dulbecco's Modified Eagles Medium (DMEM, Biowhiftaker, Walkersville, Md.) containing 10% Fetal Bovine Serum (FBS, Hyclone, Logan, Utah), 2 mM glutamine and 100 U/ml penicillin and streptomycin (Quality Biologicals, Gaithersburg, Md.). Peripheral blood mononuclear cells were isolated from fresh normal donor apheresis packs by centrifugation over Ficoll. Monocytes were enriched by 85–95% using percoll fractionation (Pharmacia, Piscataway, N.J.).
The number of cells migrating to the chemokine mixtures was determined for binding media alone, and chemokine treated and untreated cells. HEK-293 cells transfected to express human CCR1, CCR3 or CCR5 receptors were resuspended in binding media at 7.5×10^5 cells/ml. Ten μm polyvinyl-free polycarbonate membranes (Neuro Probe) were treated with 47 ug/ml rat tail collagen type 1 (Collaborative Biomedical Products, Bedford, Md.) in RPMI-1640 overnight, dried and placed over the chemoattractants. The assembled chemotaxis chambers were incubated in a humidified CO2 incubator for 5.5–6 hours. […] The stained and dried membrane was mounted and the cells on the underside of the membrane were counted at 200× magnification. […]

**Q.** How did the IC50 turn out when `CSCC[C@H](NC(=O)c1cc(C(=CCC[C@H]2CC[C@@]3(C)C(CCC4C3CC[C@@]3(C)C4CC[C@@H]3C(C)CCCC(C)C)C2)c2cc(Cl)c(O)c(C(=O)N[C@@H](CCSC)C(=O)O)c2)cc(Cl)c1O)C(=O)O` (stereo partly shown) [Compound 15] was run?
**A.** The IC50 was 12.7 µM.

From patent US7122533B2, “Cosalane compounds and methods for their use” (The United States of America as represented by the …, priority 1999, dated 2006)
